This note sets out measurements from US10066204B2, “Chemically labile peptide-presenting surfaces for cellular self-assembly” (Wisconsin Alumni Research Foundation, priority 2013, dated 2018).

The conditions of this data set: for peptide content on SAMs (XPS): over 7 days incubated in phosphate-buffered saline; for loss of surface peptide (XPS): 100% COOH SAMs, 7 days in serum-free cell culture medium (E8), no cells.

As for CRGDS [reference compound], the “peptide content on SAMs (XPS)” value is recorded as “remains unchanged”.

Regarding acetylated-CRGDS, the “peptide content on SAMs (XPS)” value was “decreases significantly”.

Turning to cyclo(RGDFDC), the “loss of surface peptide (XPS)” value is listed as “approximately 25%” and the “peptide content on SAMs (XPS)” value is on record as “decreases significantly”.

On to cyclo(RGDFDK) [reference compound], for which the “loss of surface peptide (XPS)” value is listed as “no significant loss of peptide” and the “peptide content on SAMs (XPS)” value is on record as “remains unchanged”.
